One molecule from ChEMBL document CHEMBL1240533, “Selectivity and potency of cyclin-dependent kinase inhibitors” (AAPS J, 2006) can be followed below.

By UniProt entry, the sequences of proteins in these tests, tags left out. Where a name states a change or a piece, a line headed by the entry shows the natural chain unless it says otherwise.
UniProt P11802: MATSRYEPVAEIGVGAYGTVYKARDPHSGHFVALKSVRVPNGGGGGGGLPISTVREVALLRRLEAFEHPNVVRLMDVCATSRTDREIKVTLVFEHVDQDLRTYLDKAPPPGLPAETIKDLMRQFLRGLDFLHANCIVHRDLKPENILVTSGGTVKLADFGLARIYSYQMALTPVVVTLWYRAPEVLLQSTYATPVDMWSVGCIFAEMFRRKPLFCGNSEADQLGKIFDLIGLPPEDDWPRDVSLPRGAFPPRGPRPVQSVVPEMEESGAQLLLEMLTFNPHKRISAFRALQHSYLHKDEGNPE

The target in the experiment is Cyclin-dependent kinase 4 (Homo sapiens, UniProt P11802).

The term IC50 denotes the point on the concentration scale where inhibition reaches its midpoint. Low values mean greater potency, high ones weaker potency.

Some results are limits rather than exact numbers.

As for `Cn1cnc2c(NCc3ccccc3)nc(NCCO)nc21` [OLOMOUCINE], the IC50 was above 100 µM.
